Results on two molecules are retold here after US20010009766A1 (published 2001).

The chains behind the UniProt entries cited, without tags or fusion partners. Where a name states a change or a piece, a line headed by the entry shows the natural chain unless it says otherwise.
UniProt P10683: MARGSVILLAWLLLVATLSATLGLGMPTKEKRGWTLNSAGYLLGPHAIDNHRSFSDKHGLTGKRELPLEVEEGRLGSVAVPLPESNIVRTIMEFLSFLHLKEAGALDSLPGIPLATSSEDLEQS

In assay [1] the target is T1, rat GALR3 receptor (rat).
T1 chain: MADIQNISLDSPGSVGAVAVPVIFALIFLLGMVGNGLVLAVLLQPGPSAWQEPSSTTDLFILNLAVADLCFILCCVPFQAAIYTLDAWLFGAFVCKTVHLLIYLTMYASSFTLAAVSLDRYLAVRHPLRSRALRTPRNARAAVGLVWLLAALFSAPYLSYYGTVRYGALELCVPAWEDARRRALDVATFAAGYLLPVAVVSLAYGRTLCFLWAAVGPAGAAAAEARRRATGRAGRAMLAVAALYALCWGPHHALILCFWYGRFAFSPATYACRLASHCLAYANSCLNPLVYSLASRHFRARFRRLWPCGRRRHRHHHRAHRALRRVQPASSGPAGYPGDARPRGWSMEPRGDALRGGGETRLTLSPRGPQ
The assay is described as follows: displacement of porcine 125I-galanin, membranes of stable cell line 293-rGalR3-105.

Assay [2] has as its target T1, rat GALR3 receptor. Kind of assay: displacement of porcine 125I-galanin, rat GalR3 transiently expressed in COS-7 membranes.

In general, Ki refers to the dissociation constant of the complex between target and ligand, obtained from inhibition or displacement. galantide (peptide) showed a Ki in the assay with rat GALR3 receptor [1] of 7.6 nM.
With GWTLNSAGYLLGPHAIDNHRSFSDKHGLT (peptide, UniProt P10683 33-61, looked up, mature) [rat galanin], the Ki stood at 5.7 nM in the assay with rat GALR3 receptor [1] and 4.3 nM with rat GALR3 receptor [2].
